# Apparent affinities of Ab-14 variants for a coronavirus HR2 peptide

Source: Engelhart et al. 2022 (doi:10.1038/s41597-022-01779-4), MIT Lincoln Laboratory and A-Alpha Bio; data file from the FLAb repository.

The target is the same throughout: PDVDLGDISGINAS, from the HR2 region of SARS-CoV-2 spike.

The variants keep the heavy chain, the linker and the frameworks of Ab-14 (scFv order VH, the linker GGGGSGGGGSGGGGS, VL).
VH: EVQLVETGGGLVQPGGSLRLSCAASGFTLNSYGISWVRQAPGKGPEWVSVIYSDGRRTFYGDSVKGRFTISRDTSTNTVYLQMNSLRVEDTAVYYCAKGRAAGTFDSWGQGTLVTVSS
VL: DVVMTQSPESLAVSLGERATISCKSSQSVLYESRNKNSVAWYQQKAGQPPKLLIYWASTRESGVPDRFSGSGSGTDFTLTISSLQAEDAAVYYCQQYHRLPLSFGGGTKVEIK

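The parent was found by panning a naive human phage display library on the peptide. AAYL50 was designed without a model: most single CDR substitutions and a random sample of double and triple ones. In AlphaSeq, yeast of one mating type display the scFv and yeast of the other type display the target. Binding brings cells together so that they mate, and sequencing counts the barcode pairs among the diploids. Read counts were normalised to the haploid input and turned into Kd by a linear fit to BCL2-family pairs of known affinity, for each replicate. There are three technical replicates.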

Substitutions are numbered in sequence along the VL above, starting at 1 (not Kabat).
Numbers give log10(Kd / nM), so 0 is 1 nM and 3 is 1 µM. Smaller is tighter.
Replicates are averaged; those with no signal do not enter the mean.
Where no diploid with the target was found in that replicate, the entry reads "nd": below detection, most likely a poor binder, though not proof of it.

changes	replicates, log10 nM	log10 Kd (nM), mean	signal with controls
H98Q L100S	nd 5.38 4.62	5.00	5/9 (4.87)
S28I N37A Q95Y	nd nd nd	nd	0/9
A40C S58A Q95Y	nd nd nd	nd	0/9
N37V A57F	nd nd nd	nd	0/9
S26E K36P L102D	1.34 1.24 1.54	1.37	4/9 (4.67)
A40W L100K	nd nd nd	nd	0/9
W56C E61L	0.71 1.07 0.91	0.90	0/9
R34L	1.13 1.37 1.25	1.25	1/9 (5.87)
K36H Q95Y L100N	nd nd nd	nd	0/9
S26D W56A S103W	-0.13 0.24 0.01	0.04	3/9 (3.70)
E32S S58V L102N	nd nd nd	nd	0/9
S25A K36Y S62L	0.59 0.89 0.80	0.76	6/9 (4.22)
S58C T59V Q96C	4.53 2.98 nd	3.76	4/9 (4.98)
V39W R60C L102T	nd nd nd	nd	0/9
S26E L102G S103F	nd nd 4.32	4.32	0/9
S28Y H98W L102P	nd nd nd	nd	0/9
Q27P A40W	0.24 0.60 0.48	0.44	7/9 (4.73)
S28A A57G Y97W	2.72 nd 2.15	2.44	1/9 (3.05)
Q27W P101T	nd nd nd	nd	0/9
E32W A40Q L102T	nd 3.75 nd	3.75	0/9
K24S W56Q T59R	0.39 0.67 0.58	0.55	1/9 (3.64)
V39C W56P T59C	nd nd nd	nd	0/9
S33N V39I H98S	1.41 1.45 1.64	1.50	3/9 (3.96)
S26Q T59Y L100T	1.22 1.51 1.33	1.35	4/9 (4.20)
N35W Q95C	nd nd nd	nd	0/9
R60S E61I H98W	3.45 3.26 3.20	3.30	4/9 (4.62)
R34T E61T L100R	0.86 1.02 0.97	0.95	1/9 (4.75)
K24F A40Q	nd nd nd	nd	0/9
S25Q S26L N35A	2.77 2.45 2.86	2.70	2/9 (3.78)
E32N R34L L100I	0.31 0.56 0.53	0.46	1/9 (5.26)
Y31F K36P Q95N	nd nd 3.59	3.59	0/9
S25M N35T L102E	nd nd nd	nd	0/9
S25T A57L L102Y	1.88 3.12 2.14	2.38	0/9

Repeated from above, the 4 best binders with a signal in all replicates:

changes	replicates, log10 nM	log10 Kd (nM), mean	signal with controls
S26D W56A S103W	-0.13 0.24 0.01	0.04	3/9 (3.70)
Q27P A40W	0.24 0.60 0.48	0.44	7/9 (4.73)
E32N R34L L100I	0.31 0.56 0.53	0.46	1/9 (5.26)
K24S W56Q T59R	0.39 0.67 0.58	0.55	1/9 (3.64)

As a blank, each scFv also met three strains without target: over library AAYL50, 18% of these pairings were detected, typically at 4.19 and seldom below 2.99. Also given: how often the same scFv was detected with the empty control strains, with their mean in brackets.
Parent in this assay: reference entry 0.65, copy in this library 1.68.